Columns and labels:
[1] = Local reactions (LR) at injection site; type: in vivo, human
IFN-γ producing cells = assay: E75-specific interferon-γ ELISPOT; type: cell-based, human
[2] = Delayed type hypersensitivity (DTH) to 100 μg E75 intradermally; type: in vivo, human
[3] = tested on: HER2/neu expressing breast cancer; assay: Clinical recurrence, disease-free survival and mortality in E75 vaccine trials; type: in vivo, human
[4] = design: species or system human; conditions: in vivo
[5] = in vivo

SMILES: CC[C@H](C)[C@H](NC(=O)[C@@H](N)CCCCN)C(=O)N[C@@H](Cc1ccccc1)C(=O)NCC(=O)N[C@@H](CO)C(=O)N[C@@H](CC(C)C)C(=O)N[C@@H](C)C(=O)N[C@@H](Cc1ccccc1)C(=O)N[C@@H](CC(C)C)C(=O)O [E75]
- Local reaction at vaccine 3 of primary series ([1]; >9 month group): 80
- Local reaction at the end of the primary series ([1]; >9 months group): 85±8 mm
- Local reaction to booster ([1]; booster >9 months from primary series (n=13)): 79±4 mm
- Local reaction to booster ([1]; booster ≦9 months from primary series (n=12), p=0.01): 103±7 mm
- Local reaction at vaccine 3 of primary series ([1]; ≦9 month group, p=0.04): 97
- Local reaction at the end of the primary series ([1]; ≦9 months group): 81±5 mm
- Paired assays showing increased IFN-γ producing cells with booster (IFN-γ producing cells; 78 of 194 paired assays): 40.2%
- Pre-booster assays showing detectable IFN-γ producing cells (IFN-γ producing cells; 255 total assays pre-booster, after primary series): 54.5%
- E75-specific interferon-γ ELISPOT, range post-vaccination (IFN-γ producing cells; HLA-A3 patients, baseline 0-30, p=0.04): 3-448 spots/10^6 cells
- Patients with increased IFN-γ producing cells in at least 50% of the assays (IFN-γ producing cells; after booster, 11 patients): 50%
- Patients with increased IFN-γ producing cells in at least one assay (IFN-γ producing cells; after booster, 20/22 patients): 91%
- Post-vaccination DTH ([2]; HLA-A2+ patients): 15.1±1.9 mm
- Post-vaccination DTH ([2]; HLA-A3+ patients): 10.5±2.7 mm
- Post-DTH ([2]; LE patients): 15.9 ± 1.9 mm
- Post-vaccination DTH response ([2]; NN patients, pre-vaccine 2.8±0.8 mm): 10.9±1.5 mm
- Post-vaccination DTH response ([2]; NP patients): 17.3±2.4 mm
- Orthogonal mean DTH response to the peptide ([2]; ODG, p=0.00021 vs SDG): 21.5+2.5 mm
- Post-DTH ([2]; OE patients): 12.8 ± 2.0 mm
- Orthogonal mean DTH response to the peptide ([2]; SDG): 11.3+1.3 mm
- Patients with positive post-vaccine DTH ([2]; all vaccinated patients): 74%
- Post-vaccination DTH response ([2]; patients receiving <6000 μg E75): 13.3±1.9 mm
- Post-vaccination DTH response ([2]; patients receiving a total of 6000 μg E75): 25.1±4.0 mm
- Recurrence rate ([3]; HLA-A2+ vaccinated patients): 8.2%
- Recurrence rate ([3]; HLA-A3+ vaccinated patients): 9.1%
- Recurrence rate in the vaccinated group ([3]; median follow-up 20 months, 171 enrolled, observation group 14.2%, P=0.04): 5.6%
- Disease-free survival rate, vaccinated group ([3]; median follow-up 20 months, control 77%): 92.5%
- Deaths in the vaccinated group ([3]; median follow-up 20 months, four deaths in observation group): one
- Recurrence rate in the vaccine group ([3]; median follow-up 26 months, 186 enrolled, observation 14.8%, P=0.15): 8.3%
- Clinical recurrence rate, ODG compared to SDG ([3]; p=0.27, shorter median follow-up in ODG): trend toward lower recurrence rates
- Recurrence rate ([3]; vaccinated HER2/neu low-expressors (LE), control 18.2%): 10.7%
- Recurrence rate ([3]; vaccinated HER2/neu over-expressors (OE), control 18.2%): 13.8%
- Mortality ([3]; vaccinated IHC 1+ patients, control 20%, p=0.04): 0%
- Mortality ([3]; vaccinated LE patients, control 6.8%, p=0.08): 0.0%
- Bone only recurrence, share of recurrences ([3]; vaccinated recurrent patients, control 50% (6/12), P=0.04): 0%
- Grade 4 or 5 systemic toxicities [4]: no grade 4 or 5 systemic toxicities observed
- Local toxicity grade 1, patients [4]: 81%
- Local toxicity grade 2, patients [4]: 19%
- Maximum local toxicity grade 1, patients [4]: 82%
- Maximum local toxicity grade 2, patients [4]: 18%
- Patients with 50% dose reduction in GM-CSF for significant local or systemic reactions [4]: 18.7%
- Systemic toxicity grade 0, patients [4]: 12%
- Systemic toxicity grade 1, patients [4]: 71%
- Systemic toxicity grade 2, patients [4]: 14%
- Systemic toxicity grade 3, patients [4]: 2%
- Grade 2 or 3 systemic toxicities, booster [5]: no grade 2 or 3 systemic toxicities
- Grade 3 or 4 toxicities with booster [5]: no grade 3 or 4 toxicities
- Patients with grade 1 systemic toxicity, booster [5]: eleven
- Patients with grade 2 local toxicity, booster [5]: 2 patients
- Patients with higher grade toxicity during the booster than during the primary series [5]: 4%
- Tolerability of the booster dose [5]: very well tolerated

From patent publication US8796220B2, “Vaccine for the prevention of the recurrence HER2/neu expressing cancer” (The Henry M. Jackson Foundation for the Advancement of …, priority 2007, dated 2014)
